Among the data in ChEMBL document CHEMBL1145786, “Synthesis and structure-activity relationship of alpha-sulfonylhydroxamic acids as novel, orally active matrix metalloproteinase inhibitors for the treatment of osteoarthritis” (J Med Chem, 2003) are IC50 values, retold here.

The target in this assay is Collagenase 3 (Homo sapiens, UniProt P45452).

For `CCCC[C@@](Cc1cccnc1)(C(=O)NO)S(=O)(=O)c1ccc(OC)cc1`, the IC50 turned out to be 127 nM.

As a reminder, the IC50 is the point on the concentration scale where inhibition reaches its midpoint.
